# Legend:
# [1] = tested on: KAP^2D cells; assay: annexin V apoptosis analysis in KAP^2D cells; format: cell-based, mouse; details: 3 d of treatment; Fig. 5a
# Protocol: For DNA content analysis, cells were fixed with ethanol, washed and resuspended in PBS containing 50 µg ml^−1 propidium iodide (Invitrogen) and 250 µg ml^−1 RNase A (Qiagen). Apoptosis was analyzed with the FITC annexin V apoptosis detection kit (Biolegend). Both measurements were performed with FACS Canto II (BD) and physical parameters were used to exclude cell debris and cell doublets.
# [2] = tested on: KAP liver metastasis; assay: survival of wild-type mice with KAP liver metastasis; format: in vivo, mouse; details: 20 mg kg^−1 daily, start 5 weeks after organoid inoculation
compound,measurement,setting,value
"O=C1c2ccc(Nc3ccc(F)cc3F)cc2CCc2ccc(OC[C@H](O)CO)cc21 [SKL, skepinone-L]",Annexin V+ cells,[1],11.70%
same,survival / therapeutic efficacy in KAP liver metastasis (in words),[2],did not exert therapeutic efficacy

# Source: publication PMC11864979, “First-in-class ultralong-target-residence-time p38α inhibitors as a mitosis-targeted therapy for colorectal cancer” (Nature Cancer, 2025)
